Here are results for one molecule from patent US6207683A, “Benzocycloheptathiophene compounds” (Bridge Pharma, Inc., priority 1999, dated 2001).

What is called IC50 is the point on the concentration scale where inhibition reaches its midpoint. Lower therefore signals greater potency in that assay.

The assay concerns the target T1, muscarinic M1 -receptors (bovine striatal membranes) (Bos taurus, UniProt F1N5C5).
T1 sequence (F1N5C5 1-460): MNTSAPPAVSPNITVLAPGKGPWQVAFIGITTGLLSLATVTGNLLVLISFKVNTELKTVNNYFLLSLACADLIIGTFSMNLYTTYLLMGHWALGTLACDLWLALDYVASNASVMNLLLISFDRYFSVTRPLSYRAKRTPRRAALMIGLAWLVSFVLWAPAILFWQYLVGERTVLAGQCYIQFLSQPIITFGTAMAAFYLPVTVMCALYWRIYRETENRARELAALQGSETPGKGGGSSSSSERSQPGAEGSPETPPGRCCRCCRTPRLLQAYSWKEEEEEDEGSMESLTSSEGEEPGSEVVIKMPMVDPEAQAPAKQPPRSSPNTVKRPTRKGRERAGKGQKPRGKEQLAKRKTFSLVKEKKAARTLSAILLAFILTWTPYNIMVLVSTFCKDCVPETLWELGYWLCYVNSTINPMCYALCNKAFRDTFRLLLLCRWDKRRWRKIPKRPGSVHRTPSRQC
Briefly: biochemical. The format is binding. As for the experimental part: 2. Binding to muscarinic receptors
The affinities of the test compounds for muscarinic M1 -receptors were assessed using the [^3 H]pirenzepine binding assay, modified after Luthin et al. [^3 H]Pirenzepine and [^3 H]QNB binding to brain muscarinic cholinergic receptors. Molec. Pharmac. 1984, 26: 164-169. Briefly, the experiments were carried out on bovine striatal membranes expressing muscarinic M1 -receptors. After incubation with the test article and the proper radioligand and washing, bound radioactivity is determined with a […], using a commercial scintillation cocktail. The specific radioligand binding to each receptor is defined as the difference between total binding and nonspecific binding determined in the presence of an excess of unlabelled ligand. IC50 values (concentrations required to inhibit 50% of specific binding) were determined by non linear regression analysis of the competition curves.

Regarding `CN1CCC(=C2c3ccccc3CC(=O)c3sccc32)CC1` [Ketotifen, ketotifen], the IC50 worked out at 0.0711 µM.
